From ChEMBL document CHEMBL3352256, “Structural basis for HTLV-1 protease inhibition by the HIV-1 protease inhibitor indinavir” (J Med Chem, 2014)

Biological target: Protease (Human immunodeficiency virus 1, UniProt Q9YQ12)
Assay: Inhibition of HIV1 protease

CC(C)(C)NC(=O)[C@@H]1CN(Cc2cccnc2)CCN1C[C@@H](O)C[C@@H](Cc1ccccc1)C(=O)N[C@H]1c2ccccc2C[C@H]1O showed a Ki of 0.54 nM.
